Measured values as given in patent US8524917B2, “6-substituted indole-3-carboxylic acid amide compounds having sphingosine-1-phosphate (S1P) receptor antagonist biological activity” (Allergan, Inc., priority 2007, dated 2013).

The chains behind the UniProt entries cited, without tags or fusion partners. Where a name states a change or a piece, a line headed by the entry shows the natural chain unless it says otherwise.
UniProt Q99500: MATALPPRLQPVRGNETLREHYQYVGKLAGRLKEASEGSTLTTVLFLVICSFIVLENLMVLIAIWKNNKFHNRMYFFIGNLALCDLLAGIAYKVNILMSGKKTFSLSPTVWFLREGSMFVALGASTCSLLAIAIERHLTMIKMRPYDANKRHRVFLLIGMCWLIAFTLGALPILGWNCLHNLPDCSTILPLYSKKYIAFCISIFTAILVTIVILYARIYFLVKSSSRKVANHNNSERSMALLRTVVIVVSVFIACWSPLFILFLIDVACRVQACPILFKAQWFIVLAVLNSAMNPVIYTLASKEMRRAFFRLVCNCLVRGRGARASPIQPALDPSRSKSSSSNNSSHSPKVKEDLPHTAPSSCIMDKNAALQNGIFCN

Target: human S1P3 receptor (Homo sapiens (Human), UniProt Q99500)
Experiment: Activation or block of activation of human S1P3 receptor, Ca+2 FLIPR assay
Format: cell-based
Protocol: Compounds were assessed for their ability to activate or block activation of the human S1P3 receptor in T24 cells stably expressing the human S1P3 receptor. Ten thousand cells/well were plated into 384-well poly-D-lysine coated plates one day prior to use. The growth media for the S1P3 receptor expressing cell line was McCoy's 5A medium supplemented with 10% charcoal-treated fetal bovine serum (FBS), 1% antibiotic-antimycotic and 400 μg/ml geneticin. On the day of the experiment, the cells were washed twice with Hank's Balanced Salt Solution supplemented with 20 mM HEPES (HBSS/Hepes buffer). […] Extracellular dye was removed by washing the cell plates four times prior to placing the plates in the FLIPR (Fluorometric Imaging Plate Reader, Molecular Devices). Ligands were diluted in HBSS/Hepes buffer and prepared in 384-well microplates. The positive control, Sphingosine-1-Phosphate (S1P), was diluted in HBSS/Hepes buffer with 4 mg/ml fatty acid free bovine serum albumin. The FLIPR transferred 12.5 μl from the ligand microplate to the cell plate and took fluorescent measurements for 75 seconds, taking readings every second, and then for 2.5 minutes, taking readings every 10 seconds. […] IC50 values were determined through a […] analysis using the Levenburg Marquardt algorithm.

CC(C)c1c(C(=O)NCc2ccc(F)c(F)c2)c2ccc(Oc3nccs3)cc2n1Cc1ccccc1 [Compound 132, 1-Benzyl-N-(3,4-difluorobenzyl)-2-isopropyl-6-(1,3-thiazol-2-yloxy)-1H-indole-3-carboxamide]
S1P3 (% inh): 99% | IC50 (T24 cells stably expressing the human S1P3 receptor, FLIPR Ca+2 response, 0.61 nM to 10,000 nM): 16 nM
